The results in this text go back to patent US12577232B2, “N-heterocycle substituted tryptamine derivatives and methods of using” (ENVERIC B[…] INC., priority 2024, dated 2026).

Chains of the proteins cited; added tags and fusions are not shown.
UniProt P28223, whole entry: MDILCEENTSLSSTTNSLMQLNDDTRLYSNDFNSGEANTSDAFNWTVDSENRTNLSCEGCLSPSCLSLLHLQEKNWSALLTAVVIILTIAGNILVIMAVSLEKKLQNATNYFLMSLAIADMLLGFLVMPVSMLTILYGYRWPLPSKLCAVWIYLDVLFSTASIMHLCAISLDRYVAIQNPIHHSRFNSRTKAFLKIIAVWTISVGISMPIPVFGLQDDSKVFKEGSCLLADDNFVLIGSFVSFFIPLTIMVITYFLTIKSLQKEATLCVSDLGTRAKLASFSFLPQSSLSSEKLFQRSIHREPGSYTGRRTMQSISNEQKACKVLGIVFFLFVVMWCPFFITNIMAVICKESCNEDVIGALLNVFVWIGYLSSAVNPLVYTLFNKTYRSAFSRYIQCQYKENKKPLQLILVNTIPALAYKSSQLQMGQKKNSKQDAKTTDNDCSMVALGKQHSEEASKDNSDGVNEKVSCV

The experiment addresses T1, 5-HT2A receptor (Homo sapiens, UniProt P28223).
T1 construct: purchased PerkinElmer ES-313-M400UA
As to the kind of experiment: 5-HT2A receptor radioligand competition assay (SPA, [3H]ketanserin). As to conditions: 1 nM [3H]ketanserin; membranes containing 5-HT2A. Type of experiment: binding.

A word on the Ki: it is a dissociation constant, usually derived from enzyme kinetics or from competition with a known ligand. “5-bromo-dimethyltryptamine [Compound 5-Br-DMT, reference compound]”: the affinity, expressed as Ki, was 360 nM.
